Experimental findings from patent US20230263907A1, “PREPARATION OF SOLID CYCLODEXTRIN COMPLEXES FOR OPHTHALMIC ACTIVE PHARMACEUTICAL INGREDIENT DELIVERY” (OCULIS SA, priority 2020, published 2023) are described below.

By UniProt entry, the sequences of proteins in these tests, tags left out. Residues count along the entry.
UniProt P35968, 20-1356, species assumed: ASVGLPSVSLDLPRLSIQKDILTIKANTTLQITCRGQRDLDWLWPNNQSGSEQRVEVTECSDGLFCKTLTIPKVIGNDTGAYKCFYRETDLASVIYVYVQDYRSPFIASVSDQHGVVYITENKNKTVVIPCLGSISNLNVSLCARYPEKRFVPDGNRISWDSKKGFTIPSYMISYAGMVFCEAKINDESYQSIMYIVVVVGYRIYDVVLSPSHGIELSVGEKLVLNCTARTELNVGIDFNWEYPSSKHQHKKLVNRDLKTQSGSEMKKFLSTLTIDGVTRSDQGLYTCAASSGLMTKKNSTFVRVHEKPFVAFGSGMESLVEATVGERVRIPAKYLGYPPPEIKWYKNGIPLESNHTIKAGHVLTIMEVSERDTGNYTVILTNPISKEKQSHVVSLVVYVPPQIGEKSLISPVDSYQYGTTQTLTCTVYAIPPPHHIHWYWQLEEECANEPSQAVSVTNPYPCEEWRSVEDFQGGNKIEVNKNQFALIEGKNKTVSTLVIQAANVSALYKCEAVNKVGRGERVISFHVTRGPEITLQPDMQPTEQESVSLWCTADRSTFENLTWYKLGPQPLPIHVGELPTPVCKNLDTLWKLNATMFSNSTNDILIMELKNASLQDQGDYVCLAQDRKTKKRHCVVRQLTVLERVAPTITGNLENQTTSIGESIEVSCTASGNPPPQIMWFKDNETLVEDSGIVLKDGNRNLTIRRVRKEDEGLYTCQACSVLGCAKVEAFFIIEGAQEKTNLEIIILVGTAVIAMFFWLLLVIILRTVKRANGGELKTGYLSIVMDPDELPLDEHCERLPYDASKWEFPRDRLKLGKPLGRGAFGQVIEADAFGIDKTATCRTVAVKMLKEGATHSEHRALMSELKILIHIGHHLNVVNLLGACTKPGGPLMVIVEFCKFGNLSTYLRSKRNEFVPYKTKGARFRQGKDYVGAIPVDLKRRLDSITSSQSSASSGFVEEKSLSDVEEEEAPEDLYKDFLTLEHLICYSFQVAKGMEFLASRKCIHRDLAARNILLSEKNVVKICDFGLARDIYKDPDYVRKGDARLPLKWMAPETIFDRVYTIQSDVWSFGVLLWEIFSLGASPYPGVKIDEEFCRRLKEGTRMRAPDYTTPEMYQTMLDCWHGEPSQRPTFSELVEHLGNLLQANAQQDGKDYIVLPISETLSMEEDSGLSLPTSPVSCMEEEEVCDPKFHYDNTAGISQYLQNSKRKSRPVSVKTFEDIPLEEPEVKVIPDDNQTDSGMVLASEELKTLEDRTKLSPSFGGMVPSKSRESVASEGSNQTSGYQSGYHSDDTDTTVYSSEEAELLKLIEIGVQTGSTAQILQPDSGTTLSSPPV

For the experiment, the target named is VEGFR2 (Homo sapiens, UniProt P35968). The experiment in a line: VEGFR2 IC50 values obtained from Selleckchem, Tocris Bioscience and TargetMol.

With `O=C(Nc1cc(Oc2cc(F)c(NC(=O)C3(C(=O)Nc4ccc(F)cc4)CC3)cc2F)ccn1)C1CC1` [Altiratinib], the EGFR/VEGFR2 ratio was found to be 360.

As for `COCCNCc1ccc(-c2cc3nccc(Oc4ccc(NC(=O)C5(C(=O)Nc6ccc(F)cc6)CC5)cc4F)c3s2)nc1` [Sitravatinib], the EGFR/VEGFR2 ratio is 1000.
